Residue numbers refer to the chain shown, from its start. Each block holds one binder with its values, some of them ahead of it.
Biological target: trastuzumab
Assay: BLI

- koff: 0.044 s⁻¹
B1: scFv40 (scFv, V domains shown)
VH: not shown
VL: SELTQDPAVSVALGQTVRITCQGDSLRSYYASWYQQKPGQAPVLVIYGKNNRPSGIPDRFSGSSSGNTASLTITGAQAEDEADYYCNSSDPDQLLVVFGGGTKLTVL

- koff: 0.00134 s⁻¹
B2: scFv69 (scFv, V domains shown)
VH: not shown
VL: B1 VL with D90E, D92T, Q93P, L94P, L95R

Reference: paper PMC9272835 (2022)
